# Measurements taken from ChEMBL document CHEMBL4049404, “Discovery of (R)-1-(3-(4-Amino-3-(3-chloro-4-(pyridin-2-ylmethoxy)phenyl)-1H-pyrazolo[3,4-d]pyrimidin-1-yl)piperidin-1-yl)prop-2-en-1-one (CHMFL-EGFR-202) as a Novel Irreversible EGFR Mutant Kinase Inhibitor with a Distinct Binding Mode” (J Med Chem, 2017).
# Legend:
# [1] = test system: Epidermal growth factor receptor (Homo sapiens), P00533 [L858R,T790M]; details: 100 nM
# [2] = test system: Epidermal growth factor receptor (Homo sapiens), P00533 [L858R]; details: 0.01 to 3 uM
# [3] = test system: Epidermal growth factor receptor (Homo sapiens), P00533 [C797S,L858R]
# [4] = test system: Epidermal growth factor receptor (Homo sapiens), P00533 [L858R]
# [5] = test system: Epidermal growth factor receptor (Homo sapiens), P00533 [C797S]
# [6] = molecular target: T1, Epidermal growth factor receptor (Homo sapiens, UniProt P00533); assay: Inhibition of wild-type EGFR (unknown origin) autophosphorylation at Y1068 expressed in mouse BAF3 cells after 4 hrs by Western blot analysis; type: ADME, cell-based
# [7] = test system: Epidermal growth factor receptor (Homo sapiens), P00533 [UNDEFINED MUTATION]; details: 0.01 to 3 uM
# [8] = test system: Epidermal growth factor receptor (Homo sapiens), P00533 [L858R,T790M]; details: 100 nM; remark: listed apart in the source
# [9] = test system: Epidermal growth factor receptor (Homo sapiens), P00533 [UNDEFINED MUTATION]
# [10] = test system: Epidermal growth factor receptor (Homo sapiens), P00533 [UNDEFINED MUTATION]; remark: listed apart in the source
# [11] = test system: Epidermal growth factor receptor (Homo sapiens), P00533 [L858R,T790M,C797S]
# [12] = test system: Epidermal growth factor receptor (Homo sapiens), P00533 [UNDEFINED MUTATION]; details: 100 nM
# [13] = test system: Epidermal growth factor receptor (Homo sapiens), P00533 [L858R,T790M]
# [14] = molecular target: T1, Epidermal growth factor receptor; assay: Inhibition of wild-type EGFR in human H1703 cells assessed as growth inhibition after 72 hrs by CellTiter-Glo assay; type: cell-based
# [15] = molecular target: T1, Epidermal growth factor receptor; assay: Binding affinity to wild-type human EGFR expressed in bacterial system assessed as control score at 1 uM by KINOMEScan assay; type: ADME; details: read-out: Activity
# [16] = molecular target: Epidermal growth factor receptor (Homo sapiens, UniProt P00533, T790M); assay: Inhibition of recombinant human GST-tagged EGFR T790M mutant cytoplasmic domain (668 to 1210 residues) expressed in baculovirus by Z'-LYTE assay
# [17] = test system: Epidermal growth factor receptor (Homo sapiens), P00533 [L858R,T790M]; details: 0.01 to 3 uM
# [18] = test system: Epidermal growth factor receptor (Homo sapiens), P00533 [UNDEFINED MUTATION]; details: 100 nM; remark: listed apart in the source
# [19] = test system: Epidermal growth factor receptor (Homo sapiens), P00533 [T790M,C797S]
# [20] = test system: Epidermal growth factor receptor (Homo sapiens), P00533 [UNDEFINED MUTATION]; details: 0.01 to 3 uM; remark: listed apart in the source
smiles,measurement,setting,value
C=CC(=O)N1CCC[C@@H](n2nc(-c3ccc(OCc4ccccn4)c(Cl)c3)c3c(N)ncnc32)C1,inhibition,[1],Active
same,inhibition,[2],Active
same,GI50,[3],5700 nM
same,GI50,[4],75 nM
same,GI50,[5],4600 nM
same,EC50,[6],70 nM
same,inhibition,[7],Active
same,inhibition,[8],Active
same,GI50,[9],4 nM
same,GI50,[10],4 nM
same,GI50,[11],7900 nM
same,inhibition,[12],Active
same,GI50,[13],5 nM
same,GI50,[14],8300 nM
same,activity at 1 µM,[15],0.7%
same,IC50,[16],5.3 nM
same,inhibition,[17],Active
same,inhibition,[18],Active
same,GI50,[19],2300 nM
same,inhibition,[20],Active

# Calls of active or inactive are those of the source. The rule behind the calls is not given here.
